Laboratory results taken from PubChem BioAssay AID686954 (Sanford-Burnham Center for Chemical Genomics, 2013).
This is a selection; strong and weak results do not stand in their true shares. Calls of active or inactive are those of the source.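 How the source made its calls: active means at 10 µM dose, at least 30% inhibition, measured as corrected fluorescence normalized to stimulator and neutral control wells; inactive means the rest.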

The chains behind the UniProt entries cited, without tags or fusion partners.
UniProt Q96SD1, whole entry: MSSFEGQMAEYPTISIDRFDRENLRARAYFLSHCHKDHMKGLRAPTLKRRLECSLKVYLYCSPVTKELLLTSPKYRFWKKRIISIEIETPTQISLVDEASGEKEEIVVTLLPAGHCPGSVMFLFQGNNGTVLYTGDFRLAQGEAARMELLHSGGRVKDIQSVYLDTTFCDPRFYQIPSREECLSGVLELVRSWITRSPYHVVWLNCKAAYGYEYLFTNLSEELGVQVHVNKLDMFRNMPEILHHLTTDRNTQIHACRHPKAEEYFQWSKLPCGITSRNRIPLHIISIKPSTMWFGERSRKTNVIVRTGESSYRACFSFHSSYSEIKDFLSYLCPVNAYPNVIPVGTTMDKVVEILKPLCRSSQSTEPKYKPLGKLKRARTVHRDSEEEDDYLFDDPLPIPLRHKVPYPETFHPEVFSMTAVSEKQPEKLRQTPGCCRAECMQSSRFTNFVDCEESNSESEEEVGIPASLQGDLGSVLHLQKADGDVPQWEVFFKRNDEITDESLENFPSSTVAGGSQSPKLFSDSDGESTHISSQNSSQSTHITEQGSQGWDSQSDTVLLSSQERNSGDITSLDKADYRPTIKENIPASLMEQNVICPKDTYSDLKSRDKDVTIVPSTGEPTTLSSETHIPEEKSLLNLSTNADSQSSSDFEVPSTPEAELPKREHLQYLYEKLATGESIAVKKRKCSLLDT

Each compound was assayed against Protein artemis (Homo sapiens) (UniProt Q96SD1) (assay: Artemis endonuclease inhibitors, primary screen, biochemical, fluorescence intensity, FAM/BHQ-1 hairpin substrate (AID 686954)). Details: recombinant Artemis, quenched FAM hairpin cleavage fluorescence; at 10 µM; stronger effect = higher value.

Row | SMILES | inhibition
1 | CN(C)CCOC(=O)C(O)(c1ccccc1)C1CCCCC1 (stereo not drawn) | inactive: -5.45%
2 | CP(=O)(Nc1ccc2c(c1)OCCO2)Oc1ccccc1 (stereo not drawn) | inactive: -0.42%
3 | Cc1ccccc1NP(C)(=O)Nc1ccccc1C | inactive: -7.74%
4 | CP(=O)(Oc1ccccc1)N1CCOC1=O (stereo not drawn) | inactive: 0.22%
5 | COc1ccccc1OP(C)(=O)Nc1c(C)n(C)n(-c2ccccc2)c1=O (stereo not drawn) | inactive: -2.94%
6 | COc1ccccc1OP(C)(=O)Nc1ccc(C)c(C)c1 (stereo not drawn) | inactive: -5.46%
7 | CCc1ccc(OP(C)(=O)O)cc1 | inactive: 1.3%
8 | CP(=O)(Nc1ccccn1)Oc1ccccc1 (stereo not drawn) | inactive: -4.8%
9 | Cc1ccc(NP(C)(=O)Oc2ccccc2)c(C)c1 (stereo not drawn) | inactive: 0.88%
10 | COc1ccccc1OP(C)(=O)Nc1ccc(C)cc1 (stereo not drawn) | inactive: -0.3%
11 | CP(=S)(Nn1cnnc1)Oc1ccccc1 (stereo not drawn) | inactive: 0.81%
12 | CCOP(C)(=S)SCC(=O)NC(C)C(=O)O (stereo not drawn) | inactive: -8.85%
13 | Cc1ccc(C)c(NP(C)(=O)Oc2ccccc2)c1 (stereo not drawn) | inactive: -4.98%
